Literature values in patent US20190219580A1, “METHODS OF DRUG THERAPY SELECTION FOR BREAST CANCER PATIENTS BASED ON HER2 AND HER3 PATHWAY SUBTYPING” (Nestec S.A., priority 2016, published 2019).
Where two headings read alike, the source gives them in different places.

Columns and labels:
[1] = tested on: HER2-positive, locally advanced disease without previous treatment
[2] = tested on: HER2-positive, operable breast cancer; settings: trastuzumab incorporated into adjuvant AC→paclitaxel
[3] = tested on: HER2-positive breast cancer; settings: with epirubicin, cyclophosphamide followed by docetaxel (EC-DOC), n=620

trastuzumab
HER2 receptor phosphorylation or downstream signaling events (BT474 cell lines): failed to completely inhibit
pCR rate ([1]; patients with low PTEN expression and PI3 kinase mutation): 18%
pCR rate ([1]; single agent first, followed by trastuzumab/docetaxel ×4 cycles): 34%
improvement in disease-free survival (DFS) [2]: 52%
pCR rate (no invasive disease in breast) [3]: 50%
